Laboratory results published in patent US20240317736A1, “DEUTERATED DERIVATIVE AS ATX INHIBITOR, AND APPLICATION THEREOF” (Xizang Haisco Pharmaceutical Co., Ltd., priority 2020, published 2024).
pIC50: −log10 of the molar value.

Protein sequences, listed by entry. Tags and fused reporters are not part of them.
UniProt Q12809, whole entry: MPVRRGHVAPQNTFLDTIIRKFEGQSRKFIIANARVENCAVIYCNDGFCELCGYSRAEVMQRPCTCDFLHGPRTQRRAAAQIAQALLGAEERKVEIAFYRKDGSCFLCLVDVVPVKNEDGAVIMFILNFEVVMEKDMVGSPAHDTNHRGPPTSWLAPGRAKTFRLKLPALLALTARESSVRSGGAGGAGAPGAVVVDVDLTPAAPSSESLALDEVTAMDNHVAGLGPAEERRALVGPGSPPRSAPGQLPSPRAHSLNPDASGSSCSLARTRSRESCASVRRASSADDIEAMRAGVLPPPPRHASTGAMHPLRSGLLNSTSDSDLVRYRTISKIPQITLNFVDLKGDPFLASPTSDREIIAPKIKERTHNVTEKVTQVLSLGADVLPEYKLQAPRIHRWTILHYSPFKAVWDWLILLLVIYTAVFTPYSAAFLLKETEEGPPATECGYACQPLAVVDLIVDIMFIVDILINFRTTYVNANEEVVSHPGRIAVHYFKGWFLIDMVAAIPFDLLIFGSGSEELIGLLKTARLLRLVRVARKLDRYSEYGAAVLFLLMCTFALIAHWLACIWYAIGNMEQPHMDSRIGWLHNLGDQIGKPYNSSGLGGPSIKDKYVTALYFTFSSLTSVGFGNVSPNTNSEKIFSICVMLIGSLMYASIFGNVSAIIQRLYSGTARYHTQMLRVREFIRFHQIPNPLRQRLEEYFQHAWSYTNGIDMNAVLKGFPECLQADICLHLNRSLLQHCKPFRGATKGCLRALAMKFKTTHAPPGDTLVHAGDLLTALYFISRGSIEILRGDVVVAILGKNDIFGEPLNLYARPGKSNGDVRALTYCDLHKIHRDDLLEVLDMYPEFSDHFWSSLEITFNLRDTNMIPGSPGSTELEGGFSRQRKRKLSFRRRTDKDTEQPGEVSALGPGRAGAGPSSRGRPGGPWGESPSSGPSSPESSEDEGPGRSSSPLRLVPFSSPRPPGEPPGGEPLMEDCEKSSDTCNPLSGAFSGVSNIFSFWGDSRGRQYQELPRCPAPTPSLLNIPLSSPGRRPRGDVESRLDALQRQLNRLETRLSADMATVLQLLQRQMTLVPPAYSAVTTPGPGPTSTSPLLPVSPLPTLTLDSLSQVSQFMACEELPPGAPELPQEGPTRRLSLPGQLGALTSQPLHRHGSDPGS

Experiments:
[1] = Pharmacokinetic test in monkeys
Protocol: Test objective: the pharmacokinetic characteristics and bioavailability of test compounds in monkeys were evaluated.
Test animals: twelve male Cynomolgus macaques, 2.4-5.9 kg, 3-5.5 years old, purchased from Suzhou Xishan Zhongke Laboratory Animal Co., Ltd., with the production license number of SCXK (SU) 2018-0001.
Vehicle for intravenous administration: 5% DMSO+5% Solutol+90% Saline; • vehicle for intragastric administration: 1% DMSO+1% Solutol+98% (0.5% CMC-Na)
(§1) Before and after the administration, 1.0 mL of blood was taken from the veins of the forelimbs and placed in an EDTAK2 centrifuge tube. The blood was centrifuged at 5000 rpm at 4° C. for 10 min, and plasma was collected. Time points for blood collection: 0 min, 5 min, 15 min, 30 min, 1 h, 2 h, 4 h, 6 h, 8 h, 10 h, 12 h and 24 h. Before analysis and detection, all plasma samples were stored at −80° C.

[2] = Pharmacokinetic test in rats
Protocol: Test objective: test compounds were given to SD rats via single-dose intravenous and intragastric administration, the concentrations of the test compounds in plasma of rats were measured, and the pharmacokinetic characteristics and bioavailability of test compounds in rats were evaluated.
Test animals: male SD rats, about 220 g, 6-8 weeks old, six rats/compound, purchased from Chengdu Ddossy Experimental Animals Co., Ltd.
Test method: on the day of the test, 6 SD rats were randomly grouped according to their body weights. The rats were fasted with water available for 12-14 h one day before the administration, and were fed 4 h after the administration. The administration was performed according to Table 5.
Before and after the administration, 0.1 mL of blood was taken from the orbits of the rats under isoflurane anaesthesia, and placed in an EDTAK2 centrifuge tube. Centrifugation was performed at 5000 rpm at 4° C. for 10 min, and plasma was collected.
Time points for sample collection in group G1 comprise 0 min, 5 min, 15 min, 30 min, 1 h, 2 h, 4 h, 6 h, 8 h and 24 h.
Time points for sample collection in group G2 comprise 0 min, 15 min, 30 min, 1 h, 2 h, 4 h, 6 h, 8 h and 24 h.
30 μL of each of plasma samples, standard curve samples and quality control samples was taken, and 200 μL of acetonitrile solution containing an internal standard was added, and the resulting mixture was homogeneously mixed by vortex and centrifuged at 4° C. at 12000 rpm for 10 min. 170 μL of the supernatant was taken to a 96-well plate, and LC-MS/MS analysis was performed, wherein the sample size was 2 μL.
The main pharmacokinetic parameters were analyzed by a non-compartmental model using WinNonlin 8.0 software.

hERG potassium channel = hERG potassium channel (Homo sapiens, UniProt Q12809)
[3] = Pharmacokinetic test in dogs
Protocol: Test objective: the pharmacokinetic characteristics and bioavailability of test compounds in dogs were evaluated.
Test animals: twelve male beagles, 8-10 kg, 0.5-1.5 years old, purchased from Beijing Marshall Biotechnology Co. Ltd., with the production license number of SCXK (JING) 2016-001.
Vehicle for intravenous administration: 5% DMSO+5% Solutol+90% Saline; • vehicle for intragastric administration: 1% DMSO+1% Solutol+98% (0.5% MC);
as §1

[4] = Pharmacokinetic test in mice
Protocol: Test objective: the pharmacokinetic characteristics and bioavailability of test compounds in mice were evaluated.
Test animals: thirty-six C57 male mice, about 25 g, 6-8 weeks old, purchased from Chengdu Ddossy Experimental Animals Co., Ltd., with the production license number of SCXK (CHUAN) 2020-030.
Vehicle for intravenous administration: 5% DMA+5% Solutol+90% Saline; vehicle for intragastric administration: 0.5% MC
as §1, with “0.06” for “1.0”, “orbits under isoflurane anaesthesia” for “veins of the forelimbs”, “10” for “10 h, 12”

## CCc1nn2cc(F)c(N3CCN(CC(=O)N4CC(O)C4)CC3)cc2c1N(C)c1nc(-c2ccc(F)cc2)c(C#N)s1
[1]; IV 1 mg/kg
  AUC: 1453 ± 374 ng·h/mL
  C0 or Cmax: 1002 ± 92 ng/mL
  T1/2: 1.74 ± 0.23 h
[1]; PO 5 mg/kg
  AUC: 2624 ± 23 ng·h/mL
  C0 or Cmax: 516 ± 60 ng/mL
  T1/2: 3.18 ± 1.04 h
  Tmax: 1.33 ± 0.58 h
[2]; IV 1 mg/kg
  AUC: 1491 ± 203 ng·h/mL
  C0 or Cmax: 870 ± 25 ng/mL
  T1/2: 2.69 ± 0.48 h
[2]; PO 5 mg/kg
  Tmax: 2.83 ± 2.8 h
[2]; PO 5 mg/kg vs IV 1 mg/kg
  F %: 29.3 ± 8.0%
hERG potassium channel
  pIC50: 5.03
[3]; IV 1 mg/kg
  AUC: 6850 ± 1812 ng·h/mL
  C0 or Cmax: 1374 ± 72 ng/mL
  T1/2: 5.68 ± 1.0 h
[3]; PO 2 mg/kg
  AUC: 9124 ± 1303 ng·h/mL
  C0 or Cmax: 1081 ± 149 ng/mL
  T1/2: 7.25 ± 0.45 h
  Tmax: 2.00 ± 0.0 h
[3]; PO 2 mg/kg vs IV 1 mg/kg
  F %: 66.6 ± 9.5%
[4]; IV 1 mg/kg
  AUC: 1594 ng·h/mL
  C0 or Cmax: 1383 ng/mL
  T1/2: 1.78 h
[4]; PO 10 mg/kg
  AUC: 6768 ng·h/mL
  C0 or Cmax: 928 ng/mL
  T1/2: 2.14 h
  Tmax: 2.00 h
[4]; PO 10 mg/kg vs IV 1 mg/kg
  F %: 42.5%
